Assays:
H3 receptor = target: T1, H3 receptor (Cavia porcellus, UniProt Q9JI35); test: H3 receptor bioassay (functional assay), guinea pig ileal longitudinal muscle myenteric plexus; type: cell-based; details: antagonism of R-(α)-methylhistamine E/[A] curve, Schild's methods; electrically stimulated guinea pig ileum; variance ±0.15 log units; read-out: pKB (functional assay) (converted)
T1 construct: the longitudinal muscle layer and adhering myenteric plexus was teased away; from tissue; host or cells: ileal longitudinal muscle with adhering myenteric plexus of male Dunkin-Hartley guinea pigs
Experimental: The biological activity of the compounds of the examples was measured using the ileal longitudinal muscle, myenteric plexus assay described by Paton and Aboo Zar (J. Physiol. 194, 13-33 (1968)). Male Dunkin-Hartley guinea pigs (250-300 g) were employed. Briefly, a 50 cm portion of ileum proximal to the caecum was removed, after discarding the terminal 20 cm. Ileal segments (3 cm) were cleaned by passing Krebs-Henseleit buffer containing 3 μM mepyramine gently through the ileum using a Pasteur pipette (size: 13.8 cm length, 0.65 cm diameter). To avoid unnecessary damage to the tissue, Krebs-Henseleit buffer was passed through the ileal segment, while it was lying horizontally on a petri dish. Therefore, the ileum was not over-distended and the buffer flowed through with ease. Each segment was then passed over a Pasteur pipette and the longitudinal muscle layer and adhering myenteric plexus was teased away using moist cotton wool, by stroking tangentially away from the mesenteric attachment. […] All measurements were recorded isometrically (Grass FTO3 transducer). […] The experimental E/[A] curve data was expressed as the percentage inhibition of the peak height of electrically-stimulated contraction. Antagonist affinity values were calculated from the degree of rightward shift of the R-(α)-methylhistamine E/[A] curves using Schild's methods (Arunlatcshama & Schild, 1949). […]

Sequences of proteins named here, by UniProt entry; tags and fusion partners are left off. A change or cut given only in a name is not applied to a line headed by its entry.
UniProt Q9JI35: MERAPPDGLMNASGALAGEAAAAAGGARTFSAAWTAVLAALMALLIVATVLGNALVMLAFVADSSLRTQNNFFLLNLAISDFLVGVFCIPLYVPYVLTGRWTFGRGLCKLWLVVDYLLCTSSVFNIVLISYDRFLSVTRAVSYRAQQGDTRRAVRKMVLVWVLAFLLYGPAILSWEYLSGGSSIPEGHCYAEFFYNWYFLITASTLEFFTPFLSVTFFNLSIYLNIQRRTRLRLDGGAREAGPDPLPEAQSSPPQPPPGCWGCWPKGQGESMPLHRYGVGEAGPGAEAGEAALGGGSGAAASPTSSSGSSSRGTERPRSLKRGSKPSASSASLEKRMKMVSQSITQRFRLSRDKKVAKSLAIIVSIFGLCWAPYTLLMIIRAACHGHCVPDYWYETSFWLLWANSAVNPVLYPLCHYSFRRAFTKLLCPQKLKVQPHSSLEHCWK

Histamine H3 = target: T2, Histamine H3 (Cavia porcellus, UniProt Q9JI35); test: Histamine H3 radioligand binding assay, [3H]-R-α-methylhistamine, guinea pig ileum longitudinal muscle myenteric plexus membranes; details: 3 nM [3H]-R-α-methylhistamine, 165 min, 21±3° C., Cheng Prusoff; variance ±0.12 log units
T2 construct: ileum longitudinal muscle myenteric plexus membranes; from tissue; host or cells: ileum longitudinal muscle myenteric plexus membranes of male Dunkin Hartley guinea pigs
Experimental: Histamine H3 Radioligand Binding Assay
Male Dunkin Hartley guinea pigs (200-300 g) were used. The small intestine was rapidly removed (cut ~5 cm from caecum and 5 cm from stomach) and placed in ice-cold 20 mM Hepes-NaOH buffer (pH7.4 at 21±3° C.). The tissue was cut into ~10 cm segments, flushed through with ice-cold 20 mM Hepes-NaOH buffer and placed in a beaker containing fresh buffer at 4° C. 10 cm segments of ileum were threaded onto a glass pipette and the longitudinal muscle myenteric plexus was peeled away from the circular muscle using damp cotton-wool. Longitudinal muscle myenteric plexus was immediately placed in ice-cold Viaspan® solution (~100 ml for tissue from 3 guinea pigs) and placed in the refrigerator for 24 hours. […]
Guinea pig ileum longitudinal muscle myenteric plexus membranes (400 μl) were incubated for 165 min at 21±3° C. in a final volume of 500 μl with 20 mM Hepes-NaOH buffer containing [^3 H]-R-α-methylhistamine (50 μl; 3 nM) and competing compound. […] The filters were washed (3×3 ml) with ice-cold 50 mM Tris-HCl (pH6.9 at 21±3° C.), transferred into scintillation vials, 5 ml liquid scintillation cocktail was added and after 4 hours the bound radioactivity was determined by counting (4 min) in a Beckman liquid scintillation counter.
Data are analysed using GraphPad prism and the general equation for a competition curve with variable Hill slope (nH). […]

- Kb (H3 receptor): > 10 µM
- pK1 (binding assay) (Histamine H3): 5.54
Structure (SMILES): O=S(=O)(Cc1ccccc1)NCCc1c[nH]cn1 [Example 21, N-[2-(4(5)-Imidazoyl)ethyl]-phenylmethanesulfonamide]

— US6080871A, “Sulfonamides and sulfamides as H3 receptor antagonists” (James Black Foundation Limited, priority 1996, dated 2000)
